Experimental data from patent publication US20180028594A1, “[…] OPIOID RECEPTOR AGONISTS FOR HARD TISSUE PAIN” (Cara Therapeutics, Inc., priority 2014, published 2018).

Columns and labels:
[1] = tested on: postoperative pain (soft tissue surgery); assay: Phase 2 clinical trial CLIN2002, laparoscopic hysterectomy, postoperative pain; conditions: 0.04 mg/kg I.V. preoperatively and/or postoperatively
[2] = tested on: postoperative pain (hard tissue surgery); assay: Phase 2 clinical trial CLIN2003, bunionectomy, postoperative hard tissue pain

CC(C)C[C@@H](NC(=O)[C@@H](Cc1ccccc1)NC(=O)[C@H](N)Cc1ccccc1)C(=O)N[C@H](CCCCN)C(=O)N1CCC(N)(C(=O)O)CC1 [CR845, D-Phe-D-Phe-D-Leu-D-Lys-[ω(4-aminopiperidine-4-carboxylic acid)]—OH]
Safety and tolerability [1]: safe and generally well tolerated
Mean fentanyl use versus placebo ([2]; 48 hour period): no difference
Safety and tolerability ([2]; repeated I.V. 0.005 mg/kg): safe and generally well tolerated
